Laboratory results from paper PMC12328794.

Sequences of proteins named here, by UniProt entry; tags and fusion partners are left off. A change or cut given only in a name is not applied to a line headed by its entry.
UniProt Q9Y3D6: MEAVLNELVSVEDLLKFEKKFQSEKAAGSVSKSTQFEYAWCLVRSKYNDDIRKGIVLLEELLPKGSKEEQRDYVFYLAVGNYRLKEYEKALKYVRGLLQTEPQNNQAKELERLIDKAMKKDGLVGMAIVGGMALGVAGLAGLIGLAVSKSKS

Biological target: FLAG-Fis1 full-length (human) (UniProt Q9Y3D6)
Test: co-IP; HEK293FT cells co-transfected; RIPA lysate; anti-FLAG M2 magnetic beads, FLAG-Fis1 as bait; wash 50 mM Tris-HCl, 300 mM NaCl, pH 7.4; eluted with 3× FLAG peptide; anti-HA blot

- reduction of co-precipitation against the WT construct: 50%
Substance: HA-Bap31 C-terminal region truncated (ΔC) (domain or fragment)
